# B1: human factor XII (Hageman factor) (protein)
# Chains of the proteins cited; added tags and fusions are not shown. Chains listed by the source or under a name are the forms on record and can include a tag or linker. Residues count along the entry.
# glucose-6-phosphate glycated human hemoglobin (Hb-AGE), P69905, UniProt P69905, 2-142, chain 1 of 2: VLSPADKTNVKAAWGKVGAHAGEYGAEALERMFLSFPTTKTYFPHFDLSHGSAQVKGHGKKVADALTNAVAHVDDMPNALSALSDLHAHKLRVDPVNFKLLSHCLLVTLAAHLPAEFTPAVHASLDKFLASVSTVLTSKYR
# glucose-6-phosphate glycated human hemoglobin (Hb-AGE), P69905, one chain, as listed by the source, chain 2 of 2: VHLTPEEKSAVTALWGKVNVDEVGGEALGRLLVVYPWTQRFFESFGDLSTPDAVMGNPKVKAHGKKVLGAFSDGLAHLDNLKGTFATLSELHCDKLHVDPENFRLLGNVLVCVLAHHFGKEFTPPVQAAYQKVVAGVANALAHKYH
# chain: IPPWEAPKEHKYKAEEHTVVLTVTGEPCHFPFQYHRQLYHKCTHKGRPGPQPWCATTPNFDQDQRWGYCLEPKKVKDHCSKHSPCQKGGTCVNMPSGPHCLCPQHLTGNHCQKEKCFEPQLLRFFHKNEIWYRTEQAAVARCQCKGPDAHCQRLASQACRTNPCLHGGRCLEVEGHRLCHCPVGYTGAFCDVDTKASCYDGRGLSYRGLARTTLSGAPCQPWASEATYRNVTAEQARNWGLGGHAFCRNPDNDIRPWCFVLNRDRLSWEYCDLAQCQTPTQAAPPTPVSPRLHVPLMPAQPAPPKPQPTTRTPPQSQTPGALPAKREQPPSLTRNGPLSCGQRLRKSLSSMTRVVGGLVALRGAHPYIAALYWGHSFCAGSLIAPCWVLTAAHCLQDRPAPEDLTVVLGQERRNHSCEPCQTLAVRSYRLHEAFSPVSYQHDLALLRLQEDADGSCALLSPYVQPVCLPSGAARPSETTLCQVAGWGHQFEGAEEYASFLQEAQVPFLSLERCSAPDVHGSSILPGMLCAGFLEGGTDACQGDSGGPLVCEDQAAERRLTLQGIISWGSGCGDRNKPGVYTDVAYYLAWIREHTVS
# Target: glucose-6-phosphate glycated human hemoglobin (Hb-AGE), P69905
protein,measurement,value
B1,auto-activation of factor XII (S-2222 conversion),FP13 K157G and Hb-AGE have a potency to induce auto-activation that is similar to the established surface activator DXS500k

# Reference: patent US20090202980
